Assay results published in ChEMBL document CHEMBL1125138, “1,3-Dialkyl-3-acyltriazenes, a novel class of antineoplastic alkylating agents” (J Med Chem, 1990).

How the values were obtained:
[1] = tested on: A498; test: Evaluated for the inhibitory concentration required to cause growth inhibition of A498Rem- renal cell line using the MTT Cytotoxicity Assay
[2] = tested on: A-427; test: Evaluated for the inhibitory concentration required to cause growth inhibition of A427Mer- cell line of lung using the MTT Cytotoxicity Assay
[3] = tested on: A704; test: Evaluated for the inhibitory concentration required to cause growth inhibition of A704Rem- renal cell line using the MTT Cytotoxicity Assay
[4] = tested on: A673; test: Evaluated for the inhibitory concentration required to cause growth inhibition of A673Mer+ sarcoma cell line using the MTT Cytotoxicity Assay
[5] = tested on: A 172; test: Evaluated for the inhibitory concentration required to cause growth inhibition of A172Mer- cell line of central nervous system (CNS) using the MTT Cytotoxicity Assay
[6] = tested on: CCD 19Lu; test: Evaluated for the inhibitory concentration required to cause growth inhibition of CCD-19Lu fibroblasts cell line using the MTT Cytotoxicity Assay
[7] = tested on: DOD-1; test: Evaluated for the inhibitory concentration required to cause growth inhibition of DOD-1 breast cell line using the MTT Cytotoxicity Assay
[8] = tested on: NCI-H460; test: Evaluated for the inhibitory concentration required to cause growth inhibition of H460 cell line of lung using the Microculture Tetrazolium (MTT) Cytotoxicity Assay
[9] = tested on: NCI-H358; test: Evaluated for the inhibitory concentration required to cause growth inhibition of H358M cell line of lung using the Microculture Tetrazolium (MTT) Cytotoxicity Assay
[10] = tested on: NCI-H125; test: Evaluated for the inhibitory concentration required to cause growth inhibition of H125 cell line of lung using the Microculture Tetrazolium (MTT) Cytotoxicity Assay
[11] = tested on: NCI-H322M; test: Evaluated for the inhibitory concentration required to cause growth inhibition of H322M cell line of lung using the Microculture Tetrazolium (MTT) Cytotoxicity Assay
[12] = tested on: NCI-H23; test: Evaluated for the inhibitory concentration required to cause growth inhibition of H23 cell line of lung using the Microculture Tetrazolium (MTT) Cytotoxicity Assay
[13] = tested on: LOX IMVI; test: Evaluated for the inhibitory concentration required to cause growth inhibition of LOX melanoma cell line using the MTT Cytotoxicity Assay
[14] = tested on: MCF7; test: Evaluated for the inhibitory concentration required to cause growth inhibition of MCF-7 breast cell line using the MTT Cytotoxicity Assay
[15] = tested on: MAR BEL fibroblasts cell line; test: Evaluated for the inhibitory concentration required to cause growth inhibition of MAR BEL fibroblasts cell line using the MTT Cytotoxicity Assay
[16] = tested on: NCI/ADR-RES; test: Evaluated for the inhibitory concentration required to cause growth inhibition of MCF-7ADR breast cell line using the MTT Cytotoxicity Assay
[17] = tested on: Malme-3M; test: Evaluated for the inhibitory concentration required to cause growth inhibition of MALME-3M melanoma cell line using the MTT Cytotoxicity Assay
[18] = tested on: OVCAR-4; test: Evaluated for the inhibitory concentration required to cause growth inhibition of OVCAR-4 ovarian cell line using the MTT Cytotoxicity Assay
[19] = tested on: OVCAR-3; test: Evaluated for the inhibitory concentration required to cause growth inhibition of OVCAR-3 ovarian cell line using the MTT Cytotoxicity Assay
[20] = tested on: HOS-TE85; test: Evaluated for the inhibitory concentration required to cause growth inhibition of TE85Mer+ sarcoma cell line using the MTT Cytotoxicity Assay
[21] = tested on: TE-671; test: Evaluated for the inhibitory concentration required to cause growth inhibition of TE-671 cell line of central nervous system (CNS)using the MTT Cytotoxicity Assay
[22] = tested on: WiDr; test: Evaluated for the inhibitory concentration required to cause growth inhibition of WiDR colon cell line using the MTT Cytotoxicity Assay
[23] = tested on: U-251; test: Evaluated for the inhibitory concentration required to cause growth inhibition of U251 cell line of central nervous system (CNS) using the MTT Cytotoxicity Assay
[24] = tested on: RPMI-7951; test: Evaluated for the inhibitory concentration required to cause growth inhibition of RPMI7951 melanoma cell line using the MTT Cytotoxicity Assay
[25] = tested on: NCI-H520; test: Evaluated for the inhibitory concentration required to cause growth inhibition of H522 cell line of lung using the Microculture Tetrazolium (MTT) Cytotoxicity Assay
[26] = tested on: SK-MEL-5; test: Evaluated for the inhibitory concentration required to cause growth inhibition of SK-MEL-5 melanoma cell line using the MTT Cytotoxicity Assay
[27] = tested on: A549; test: Evaluated for the inhibitory concentration required to cause growth inhibition of A549Rem- cell line of lung using the MTT Cytotoxicity Assay

SMILES: CCOP(=O)(OCC)N(C)/N=N\C
- IC50 [1]: 22 µM
- IC50 [2]: 7 µM
- IC50 [3]: 37 µM
- IC50 [4]: 25 µM
- IC50 [5]: 14 µM
- IC50 [6]: 37 µM
- IC50 [7]: 30 µM
- IC50 [8]: 42 µM
- IC50 [9]: 50 µM
- IC50 [10]: 29 µM
- IC50 [11]: 25 µM
- IC50 [12]: 14 µM
- IC50 [13]: 20 µM
- IC50 [14]: 20 µM
- IC50 [15]: 40 µM
- IC50 [16]: 23 µM
- IC50 [17]: 15 µM
- IC50 [18]: 20 µM
- IC50 [19]: 27 µM
- IC50 [20]: 20 µM
- IC50 [21]: 28 µM
- IC50 [22]: 20 µM
- IC50 [23]: 25 µM
- IC50 [24]: 26 µM
- IC50 [25]: 18 µM
- IC50 [26]: 18 µM
- IC50 [27]: 30 µM
